For 65 compounds, inhibition results are on record in PubChem BioAssay AID1273 (Columbia University Molecular Screening Center, 2008).

The list shows a part of the results, in another mix than the full data. Active and inactive are the calls of the source.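 The calls were made as follows: active = inhibition above the mean plus 3 SD, with well images judged a real hit on visual review (cut at about 60% in these data, passing the limit was not always enough); inconclusive = inhibition over the cutoff but images rejected on review; inactive = inhibition not above the cutoff.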

The nature of the assay: inhibitors of insulin promoter-driven GFP, primary screen, imaging, TRM-6 cells (human fetal islet line), eGFP reporter, cell count (AID 1273). To be noted: at 2 µM, active compounds read high, reporter expression induced with tamoxifen.
On to `Cc1nn(-c2ccccc2)c2c1P(=O)(N1CCOCC1)N(C)C(c1ccccc1)=N2` (stereo not given), for which the inhibition is inactive: -21.4%.

Turning to `COc1cc(C2NCCC3(OCCO3)C2(C)C)cc(OC)c1OC.O=[N+]([O-])c1cc([N+](=O)[O-])c(O)c([N+](=O)[O-])c1` (stereo not given), the inhibition is inactive: 0%.

As for `O=[N+]([O-])c1ccc2c(c1)nnn2O`, the inhibition was inactive: 39.3%. Consider `CCOP1(=S)c2c(C)nn(CCC#N)c2N=C(c2ccccc2F)N1C` (stereo not given), for which the inhibition is inactive: -3.57%. With `O=P(Nc1nccs1)(Oc1ccccc1)Oc1ccccc1` the figure was inactive: 15%; with `Cc1cc(C)cc(OP(C)(=O)Nc2ccccn2)c1` (stereo not given), inactive: 6.67%; with `Cc1ccc(C)c(NP(C)(=O)Oc2ccccc2)c1` (stereo not given), inactive: -37.8%. With `CCOP(=O)(Nc1cccc2ccccc12)OCC` the figure was inactive: -37.5%. `COc1cc(C(=O)NCC2(N3CCOCC3)CCCCC2)cc(Cl)c1OC(C)C`: the inhibition was inactive: -36.4%. With `Cc1cccc(OCC(=O)OC2CN3CCC2CC3)c1` (stereo not given) the figure was inactive: -71.4%; with `Cc1cc(C)cc(OP(C)(=O)Nc2ccc(C)cc2C)c1` (stereo not given), inactive: -71%; with `CCOC(=O)c1ccc(NP(C)(=O)Oc2cc(C)cc(C)c2)cc1` (stereo not given), inactive: -2.78%. With `O=C(OCCN1CCN(CCOCc2ccccc2)CC1)C(O)(c1ccccc1)c1ccccc1` the figure was inactive: -69.2%; with `CC(C)(C)C(=O)NC(Sc1ccccc1)C(Cl)(Cl)Cl` (stereo not given), inactive: 44.2%; with `CCC(=O)N1C2C3N(C(=O)CC)C1C1N(C(=O)CC)C(C(N1C(=O)CC)N3C(=O)CC)N2C(=O)CC`, inactive: -35.1%. For the compound `CCN(CC)CCCOC(=O)C(O)(c1ccccc1)C1CCCCC1` (stereo not given), the inhibition was inactive: 25%.

Consider `COC(=O)c1cc2c(s1)N=C(c1ccccc1)N(C)P2(=O)N1CCOCC1` (stereo not given), for which the inhibition was inactive: 9.09%. `Cc1ccc(OP(=O)(Nc2ccccn2)Oc2ccc(C)cc2)cc1`: the inhibition was inactive: 60%. In the case of `CC(=O)NC(SC(=S)N(CC(C)C)CC(C)C)C(Cl)(Cl)Cl` (stereo not given), the inhibition is inactive: -294%. Consider `CP(=O)(Nc1ccccc1)Oc1ccc(F)cc1` (stereo not given), for which the inhibition is inactive: -17.1%. On to `c1ccc(-c2nn[nH]n2)c(-c2nn[nH]n2)c1`, for which the inhibition is inactive: 14.3%. As for `COc1ccc(OP(C)(=O)Nc2ccc(SC(F)(F)F)cc2)cc1` (stereo not given), the inhibition is inactive: -100%. With `CCOC(=O)c1ccc(NP(C)(=O)Oc2ccc(F)cc2)cc1` (stereo not given) the figure was inactive: -14.3%; with `CC(=O)NC(SC(=S)N(C)C)C(Cl)(Cl)Cl` (stereo not given), inactive: 27.8%; with `C(Cc1nn[nH]n1)Cc1nn[nH]n1`, inactive: 0%.

As to `CN(C)CCOC(=O)C(O)(c1ccccc1)C1CCCCC1` (stereo not given), the inhibition is inactive: 33.3%.

With `CP(=O)(Nc1ccc2c(c1)OCCO2)Oc1ccccc1` (stereo not given), the inhibition was inactive: 4%.

For the compound `Cc1ccccc1NP(C)(=O)Nc1ccccc1C`, the inhibition is inactive: 0%. With `O=P(Nc1nccs1)(c1ccccc1)c1ccccc1` the figure was inactive: 44.7%.

Regarding `CC(C)C(=O)NC(Sc1ccccc1)C(Cl)(Cl)Cl` (stereo not given), the inhibition was inactive: 2.04%. As to `CCN(/C(=N/P(=O)(N1CCOCC1)N1CCOCC1)N1CCOCC1)c1ccc(OC)cc1`, the inhibition is inactive: -21.4%. The figure for `CP(=O)(Nc1ccc(Cl)cc1)Oc1ccc(F)cc1` (stereo not given) is inactive: 17.1%; for `COc1ccccc1OP(C)(=O)Nc1ccccc1Br` (stereo not given) it is inactive: -45.5%.

For the compound `CC(C)(C)c1ccc(OP(C)(=O)O)cc1`, the inhibition is inactive: -95.7%.

For `CC1CCN(C(=O)Oc2c(Cl)cc(Cl)c3cccnc23)CC1`, the inhibition is inactive: -22.2%. With `CN(C)C(=O)c1c([N+](=O)[O-])cc([N+](=O)[O-])cc1[N+](=O)[O-]` the figure was inactive: 35.7%; with `CN(C)C(=O)OCCc1n(C)cc[n+]1C`, inactive: 36.4%; with `CCN(CC)CC(O)COC(=O)C(O)(c1ccccc1)C1CCCCC1` (stereo not given), inactive: 0%. In the case of `COc1ccc(OP(C)(=O)Nc2ccc(Br)cc2)cc1` (stereo not given), the inhibition is inactive: -24.3%. With `COc1ccc(C2=NCC(CBr)S2)cc1` (stereo not given) the figure was inactive: 51.2%; with `O=[N+]([O-])c1cc([N+](=O)[O-])c(CCNc2ccccc2)c([N+](=O)[O-])c1`, inactive: 35%. For `CCc1nc2c(n1)c1c(non1O)c1c2no[n+]1[O-]`, the inhibition was inactive: 28.6%.

As for `CC(=O)N1C2C3N(C(C)=O)C1C1N(C(C)=O)C(C(N1C(C)=O)N3C(C)=O)N2C(C)=O`, the inhibition was inactive: -10.8%.

For the compound `O=[N+]([O-])c1cccc2n[nH]nc12`, the inhibition was inactive: -64.3%.

Turning to `COc1ccccc1OP(C)(=O)Nc1c(C)n(C)n(-c2ccccc2)c1=O` (stereo not given), the inhibition is inactive: 0%.

On to `O=[N+]([O-])c1ncn(CCn2ncnc2[N+](=O)[O-])n1`, for which the inhibition was inactive: 41.7%.

Turning to `CP(=O)(OC12CC3CC(CC(C3)C1)C2)OC12CC3CC(CC(C3)C1)C2`, the inhibition is inactive: -17.1%.

With `CCOC(=O)c1ccc(NP(C)(=O)Oc2ccc(Cl)cc2)cc1` (stereo not given), the inhibition was inactive: 13.3%.

For `Cc1nc2ccc3ccccc3c2o1.O=[N+]([O-])c1cc([N+](=O)[O-])c(O)c([N+](=O)[O-])c1`, the inhibition is inactive: 41.9%. Turning to `CCN(N=Nc1nonc1N)c1nonc1N`, the inhibition is inactive: 0%.

As for `COc1ccc(OP(C)(=O)Nc2ccccc2Br)cc1` (stereo not given), the inhibition is inactive: -47.1%.

As for `CCOP(=O)(Nc1ccccc1)OCC`, the inhibition is inactive: -3.57%. Take `COc1ccccc1OP(C)(=O)Nc1ccc(C)c(C)c1` (stereo not given): the inhibition is inactive: -9.09%. The figure for `Oc1ccccc1CNc1ccccn1` is inactive: 0%; for `O=C(NC(Sc1ccncn1)C(Cl)(Cl)Cl)c1ccccc1` (stereo not given) it is inactive: 26.7%; for `Cc1c(NP(C)(=O)Oc2ccc(C(C)C)cc2)c(=O)n(-c2ccccc2)n1C` (stereo not given) it is inactive: 19.4%.

For the compound `CC(C)CC(=O)NC(Sc1ccc(Cl)cc1)C(Cl)(Cl)Cl` (stereo not given), the inhibition is inactive: -3.33%. The figure for `CCc1ccc(OP(C)(=O)O)cc1` is inactive: 31.4%. With `CP(=O)(Nc1ccccn1)Oc1ccccc1` (stereo not given) the figure was inactive: 27%; with `COc1ccccc1OP(C)(=O)Nc1ccc(C)cc1C` (stereo not given), inactive: -62.8%. With `Cc1ccc(N/C(=N/P(=O)(N2CCOCC2)N2CCOCC2)N2CCOCC2)cc1` the figure was inactive: -11.1%; with `NC(=O)c1cc([N+](=O)[O-])cc([N+](=O)[O-])c1N`, inactive: 26.7%; with `CN1CCCC(OC(=O)C(c2ccccc2)c2ccccc2)C1` (stereo not given), inactive: -33.3%. For `CN(C)CCOC(=O)C(O)(c1ccccc1)C1CCCC1` (stereo not given), the inhibition is inactive: 3.33%.

`COc1ccc(OP(C)(=O)Nc2ccccn2)cc1` (stereo not given): the inhibition was inactive: -16.1%.
